{"source": "paper PMC5458644", "about": "(Neoplasia (New York, N.Y.), 2017)", "test_system": "human tumor-infiltrating lymphocytes (TILs)", "test": "Ex vivo assay of disaggregated resected NSCLC tumors, γ-interferon ELISA", "format": "cell-based", "details": "rh-IL-2 6000 U/ml; 3 days culture"}
{"substance": "IL-2: recombinant human IL-2 added at seeding (6000 U/ml)", "values": [{"measurement": "T-cell activity (γ-interferon) with IL-2 alone", "value": "little to no activity"}]}
